Source: PubChem BioAssay AID738 (SRMLSC, 2007)
This is a selection; strong and weak results do not stand in their true shares. Some of these compounds have results that are not shown, active ones among them. The source made the active and inactive calls. Cut-off read from the data, not from the text of the source: active = inhibition above about 30%; inactive = the rest.

Experiment: yeast control strain growth suppression – counter-screen for post-Golgi transport modulator project, primary screen (AID 738)
Details: efflux-deficient yeast background strain, growth absorbance A615, 16 h; at 10 µM; active compounds read high

| SMILES | inhibition |
| --- | --- |
| CC(C)N1C(=O)CC2(CCN(CCOC(=O)C(O)(c3ccccc3)c3ccccc3)CC2)C1=O | inactive: 2.56% |
| O=C(OC1CN2CCC1CC2)C(CO)(c1ccccc1)c1ccccc1 (stereo not drawn) | inactive: 2.25% |
| CN(C)c1cccc(C(=O)NCC2(N(C)C)CCCCC2)c1 | inactive: -0.16% |
